This passage reports Ki results from ChEMBL document CHEMBL5053503 (2021).

By UniProt entry, the sequences of proteins in these tests, tags left out. Where a name states a change or a piece, a line headed by the entry shows the natural chain unless it says otherwise.
UniProt P28335: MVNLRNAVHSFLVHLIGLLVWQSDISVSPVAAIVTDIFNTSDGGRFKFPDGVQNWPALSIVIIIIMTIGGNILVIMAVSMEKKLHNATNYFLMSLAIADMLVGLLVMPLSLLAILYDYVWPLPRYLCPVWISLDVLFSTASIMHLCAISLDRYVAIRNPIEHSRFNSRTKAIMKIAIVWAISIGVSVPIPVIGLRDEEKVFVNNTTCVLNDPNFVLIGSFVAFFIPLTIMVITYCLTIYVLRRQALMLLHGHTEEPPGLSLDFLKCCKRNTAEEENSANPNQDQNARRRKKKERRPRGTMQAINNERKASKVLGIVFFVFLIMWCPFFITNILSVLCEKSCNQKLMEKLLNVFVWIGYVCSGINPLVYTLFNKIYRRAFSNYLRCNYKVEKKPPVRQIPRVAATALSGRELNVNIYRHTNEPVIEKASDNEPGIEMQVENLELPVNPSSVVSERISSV

For this assay, the target named is 5-hydroxytryptamine receptor 2C (Homo sapiens, UniProt P28335). Briefly: biochemical.

The term Ki denotes a measure of affinity in units of concentration, obtained from inhibition or displacement. With `Cn1ccc2cc3c(cc21)CCN3C(=O)Nc1cccnc1`, affinity was put at a Ki of 2.8 nM.
